Laboratory results as given in patent publication US9290488B2, “Azetidine-substituted quinoxalines as opioid receptor like-1 modulators” (priority 2011, dated 2016).

The chains behind the UniProt entries cited, without tags or fusion partners.
UniProt P35372, whole entry: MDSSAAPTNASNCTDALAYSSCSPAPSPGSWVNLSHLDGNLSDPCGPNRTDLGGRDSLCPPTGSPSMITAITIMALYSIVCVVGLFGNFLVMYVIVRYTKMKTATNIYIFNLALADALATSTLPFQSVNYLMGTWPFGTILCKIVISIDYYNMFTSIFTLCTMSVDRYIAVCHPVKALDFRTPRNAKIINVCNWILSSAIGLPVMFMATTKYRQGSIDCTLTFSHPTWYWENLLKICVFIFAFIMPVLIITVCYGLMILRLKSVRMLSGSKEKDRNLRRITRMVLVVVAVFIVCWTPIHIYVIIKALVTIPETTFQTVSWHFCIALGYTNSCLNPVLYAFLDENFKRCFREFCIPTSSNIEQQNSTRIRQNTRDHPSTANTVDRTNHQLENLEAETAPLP
UniProt P41146, whole entry: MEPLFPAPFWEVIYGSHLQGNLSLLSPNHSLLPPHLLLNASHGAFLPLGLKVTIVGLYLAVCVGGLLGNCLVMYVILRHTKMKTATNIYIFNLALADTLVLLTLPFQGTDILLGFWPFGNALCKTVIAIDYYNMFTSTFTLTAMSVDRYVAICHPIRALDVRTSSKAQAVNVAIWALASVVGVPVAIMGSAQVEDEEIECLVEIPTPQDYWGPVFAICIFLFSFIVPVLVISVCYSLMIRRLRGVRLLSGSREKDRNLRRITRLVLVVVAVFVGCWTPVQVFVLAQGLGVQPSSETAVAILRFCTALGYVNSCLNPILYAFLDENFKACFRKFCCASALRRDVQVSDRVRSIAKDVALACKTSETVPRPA

Key:
human μ-receptors = human μ-receptors (Homo sapiens (Human), UniProt P35372); assay: In vitro mu-opioid receptor [35S]GTPγS functional assay
[1] = target: human opioid receptor-like (ORL-1) (Homo sapiens (Human), UniProt P41146); assay: ORL-1 receptor [35S]GTPγS functional binding assay; type: biochemical; conditions: ORL-1 GTPγS

In the case of `CC[C@@H]1C[C@@H]2C[C@H](C1)C[C@@H](N1[C@@H]3CCC[C@H]1C[C@@H](n1c(=O)c(N4CC(C(=O)O)C4)nc4ccccc41)C3)C2`, the “GTPγS Emax [mean ± SEM] Opioid Receptor Mu” value (human μ-receptors) was 41.3 ± 4.1% and the “GTPγS Emax [mean ± SEM] ORL-1” value [1] was 44.0 ± 4.0%.
